# Results published in patent publication US8147838B2, “Peptide” (priority 2005, dated 2012).
# Tests used:
# Details in all cases: percent of positive control peptide binding; peptide at 1.11×10^−5M
# [1] = biological target: MHC class I allele A*0101 (A1) (Homo sapiens, UniProt P04439, A114D/A174V/A182V/D101N/D185E/E176A/E190D/L180R/Q94H/R68K/S129P/T187R/V100A/V91M/W191G); experiment: iTopia peptide binding assay, A*0101
# Experimental: (§1) The 9 mers were tested for Peptide Binding, Off Rate and Affinity using iTopia Epitope Discovery System in accordance with the manufacturer's instructions. Briefly, 96 well microtitre plates coated with MHC molecules representing different MHC alleles are used to identify candidate peptides. […] Determinations are performed in duplicate using an ELISA plate reader and included allele specific positive controls.
# (§2) i) Peptide Binding—This assay measures the ability of individual peptides to bind to the MHC molecules under standardized optimal binding conditions. The assay is performed for all the test peptides across the selected MHC alleles. The test peptides identified as “binders” are characterized further in terms of affinity and dissociation experiments.
# (§3) Following a period of binding under optimal conditions, excess antibody is removed and a measurement of total fluorescence taken (D).
# (§4) The binding of the test peptides to the MHC molecules was performed at 1.11×10^−5M of peptide under optimal, standardised test conditions. A control peptide was run in parallel on the same plate and at the same concentration as the test peptides.
# (§5) The level of binding is expressed as a percent of positive control peptide binding for each allele.
# [2] = biological target: MHC class I allele B*0702 (B7) (Homo sapiens, UniProt P01889); experiment: iTopia peptide binding assay, B*0702
# Experimental: as §1, §2, §3, §4, §5
# [3] = biological target: MHC class I allele A*0301 (A3) (Homo sapiens, UniProt P04439); experiment: iTopia peptide binding assay, A*0301
# Experimental: as §1, §2, §3, §4, §5
# [4] = biological target: MHC class I allele A*0201 (A2) (Homo sapiens, UniProt P04439, D140Y/D185E/D98H/E176V/E277Q/G131W/G231S/I119V/I121R/I166T/I218V/L300P/L318F/N151K/N90K/P208A/P217A/Q86G/Q94H/R138H/R169H/T345S); experiment: iTopia peptide binding assay, A*0201
# Experimental: as §1, §2, §3, §4, §5
smiles,measurement,setting,value
CC(C)C[C@H](NC(=O)[C@H](CC(N)=O)NC(=O)[C@H](CC(C)C)NC(=O)[C@H](C)NC(=O)[C@H](C)NC(=O)[C@H](CC(C)C)NC(=O)[C@H](CCC(=O)O)NC(=O)[C@H](C)NC(=O)[C@@H](N)CC(C)C)C(=O)O [Peptide 59],"Peptide binding, MHC Class I Molecule A*0101",[1],15 % of control
same,"Peptide binding, MHC Class I Molecule B*0702",[2],16 % of control
same,"Peptide binding, MHC Class I Molecule A*0301",[3],3 % of control
same,"Peptide binding, MHC Class I Molecule A*0201",[4],63 % of control
